Results taken from PubChem BioAssay AID743279 (National Center for Advancing Translational Sciences (NCATS), 2014).
Only a part is listed here, and it is no random draw. Results filed as inconclusive are left out. Calls of active or inactive are those of the source. Cut-off read from the data, not from the text of the source: active = activity change below about -50%; inconclusive = mostly about -30% to -49%; inactive = weaker than that.

experiment: qHTS for Inhibitors of Inflammasome Signaling: IL-1-beta AlphaLISA Primary Screen; details: THP-1 LPS/ATP IL-1B secretion, 16 h, at 57.5 µM, stronger effect = lower value
Source text: Inflammasomes are a set of intracellular multi-protein complexes that enable autocatalytic activation of inflammatory caspases and drive the innate immune response to counter harmful agents. […] A qHTS assay, based on AlphaLISA technology, was developed to screen the Molecular Libraries Small Molecule Repository (MLSMR) to look for novel inflammasome inhibitors. The assay detects IL-1B using AlphaLISA anti-IL-1B acceptor and donor beads. A decreased emission signal, indicating reduced IL-1B secretion, is the desired outcome for this assay. NIH Chemical Genomics Center [NCGC] NIH Molecular Libraries Probe Centers Network [MLPCN] MLPCN Grant: MH095513 Assay Provider: Shyam Biswal Ph.D., Johns Hopkins University Immunity. 2012 Jul 27;37(1):85-95. PMID: 22819042 [2] Curr Pharm Des. 2012;18(16):2320-8. PMID: 22390695
Three microliters containing 3000 THP-1 cells were dispensed into the wells of solid, white, tissue culture treated Greiner 1,536-well plates. Library compounds and positive control, Glyburide, were pin-transferred (23 nL) by a Kalypsys pin-tool equipped with a 1,536-pin array, resulting in final compound concentration ranges of 2.5 nM to 57.5 uM. After 1 hr of cell culture incubation (37 °C, 5% CO2), 1 microL of 1 microg/mL lipopolysaccharide (250 ng/mL, final) and 5 mM ATP (1.25 mM, final) were added to stimulate the cells. After 16 hr of cell culture incubation with the compounds, 1.5 uL of anti-IL-1B acceptor beads (6 ug/mL, final) and biotinylated antibody (0.6 nM, final) were added to the plate, followed by a 1 hr incubation at ambient temperature. To detect the secreted IL-1B, 1.5 uL of AlphaLISA SA-Donor beads (24 ug/mL, final) were added, followed by 30 min of incubation in the dark at ambient temperature. The AlphaLISA signal was read by a PerkinElmer EnVision plate reader with an ultrasensitive luminescence detector and 1536 Plate HTS AlphaScreen aperture (excitation of 680nm and emission of 615nm).
% is set by controls: 0 for no effect and ±100 for the full control effect.

Compound	activity change
O=P(Nc1nccs1)(c1ccccc1)c1ccccc1	inactive: 19.3%
CC(C)C(=O)NC(Sc1ccccc1)C(Cl)(Cl)Cl (stereo not drawn)	inactive: 5.88%
c1nnnn1CCn1cnnn1	inactive: 12%
CN(C)C1(CNC(=O)c2ccc(Cl)c(S(N)(=O)=O)c2)CCCCC1	inactive: 9.36%
O=P(Nc1ccccn1)(c1ccc(Br)cc1)c1ccc(Br)cc1	inactive: -9.8%
Nc1ccc(CCCCOc2ccccc2)cc1	inactive: -15.2%
COc1ccc(N)c([N+](=O)[O-])c1[N+](=O)[O-]	inactive: -6.59%
O=P(Nc1nc2ccccc2s1)(c1ccccc1)c1ccccc1	inactive: 1.41%
C[C@H]1OP(=O)(Oc2ccccc2)[C@H](O)[C@H](O)[C@H]1N=[N+]=[N-] (stereo partly drawn)	inactive: 10.3%
O=[As](O)(c1ccccc1)c1ccc(O)cc1	inactive: -8.62%
CC(=O)NC(SC(=S)N(C)C)C(Cl)(Cl)Cl (stereo not drawn)	active: -52.4%
O=[N+]([O-])c1ncn(CCn2cnc([N+](=O)[O-])n2)n1	inactive: 11.7%
O=[N+]([O-])c1ccc(O)c(/C=N/Nc2ccc([N+](=O)[O-])cc2[N+](=O)[O-])c1	inactive: -4.84%
O=C(OC1CN2CCC1CC2)c1cccc(Cl)c1 (stereo not drawn)	inactive: 11%
Nc1ccc([As](=O)(O)c2ccc([N+](=O)[O-])cc2)cc1	inactive: -6.77%
C(Cc1nn[nH]n1)Cc1nn[nH]n1	inactive: 14.3%
c1ccc(-c2nn[nH]n2)c(-c2nn[nH]n2)c1	inactive: 22.7%
O=C(NC1CCS(=O)(=O)C1)NP(=S)(Oc1ccccc1)Oc1ccccc1 (stereo not drawn)	inactive: 7.21%
CCNC(=S)/N=C(\N)N[N+](=O)[O-]	inactive: 0.747%
O=P1(N(CCCl)CCCl)OCCC2CCCCN21 (stereo not drawn)	inactive: 13%
O=C(OC1CN2CCC1CC2)c1ccccc1 (stereo not drawn)	inactive: -10.8%
CCC(=O)N1C2C3N(C(=O)CC)C1C1N(C(=O)CC)C(C(N1C(=O)CC)N3C(=O)CC)N2C(=O)CC	inactive: 5.57%
COC(=O)c1cc2c(s1)N=C(c1ccccc1)N(C)P2(=O)N1CCOCC1 (stereo not drawn)	inactive: 3.54%
CC(=O)NC(SC(=S)N(CC(C)C)CC(C)C)C(Cl)(Cl)Cl (stereo not drawn)	inactive: 7.82%
Cc1ccc(OP(=O)(Nc2ccccn2)Oc2ccc(C)cc2)cc1	inactive: -19.6%
Cc1ccccc1OP(=O)(Nc1ccccn1)Oc1ccccc1C	inactive: 7.96%

Compound	activity change
CC(NC(=O)COC(=O)C(O)(c1ccccc1)c1ccccc1)c1ccccc1 (stereo not drawn)	inactive: 9.01%
CN(C)C(=O)Oc1noc2ccccc12	inactive: 7.97%
O=c1c2cc([N+](=O)[O-])ccc2[nH]c2c([N+](=O)[O-])cc([N+](=O)[O-])cc12	active: -93.8%
O=P1(Nc2nc3ccc(Cl)cc3s2)COc2ccccc2O1 (stereo not drawn)	inactive: 28.5%
CCOc1ccc(C2=NCC(CBr)S2)cc1 (stereo not drawn)	inactive: 4.59%
CC(C)(C)C(=O)NC(Sc1ccccc1)C(Cl)(Cl)Cl (stereo not drawn)	inactive: 0%
CCc1cc(O)c([N+](=O)[O-])c(C)c1[N+](=O)[O-]	inactive: 12.6%
C[C@@H]1C=CCP(=O)(Oc2ccccc2)O1 (stereo partly drawn)	inactive: 27%
C[C@H]1OP(=O)(Oc2ccccc2)C[C@@H]2O[C@@H]21 (stereo partly drawn)	inactive: 0%
N#C/C(=C\c1ccc(N(CCBr)CCBr)cc1)C(N)=O	inactive: 4.88%
CC(=O)c1ccc(N2CC2c2ccncc2)cc1 (stereo not drawn)	inactive: 14.9%
COC(=O)C1(C)COP(=O)(NCc2ccccc2)OC1 (stereo not drawn)	inactive: 22.3%
CC(=O)Nc1ccc([As](=O)(O)O)c(O)c1	inactive: -6.1%
CC(=O)Nc1ccc(Oc2c([N+](=O)[O-])cc([N+](=O)[O-])cc2[N+](=O)[O-])cc1	inactive: 15%
Cc1ccc(N/C(=N/P(=O)(N2CCOCC2)N2CCOCC2)N2CCOCC2)cc1	inactive: 11.3%
NC(=O)c1cc([N+](=O)[O-])cc([N+](=O)[O-])c1N	inactive: 20.6%
Clc1ccc(Cl)c(NC2=NCC(CBr)S2)c1 (stereo not drawn)	inactive: -11.4%
CN1CCCC(OC(=O)C(c2ccccc2)c2ccccc2)C1 (stereo not drawn)	inactive: -15%
COc1ccccc1OP(=O)(Nc1ccc(C)cn1)Oc1ccccc1OC	inactive: 27%
Cc1ccc(OP(=O)(Nc2nccs2)Oc2ccc(C)cc2)cc1	inactive: 26.1%
Oc1ccccc1CNc1ccccn1	inactive: -7.04%
O=C(NC(Sc1ccncn1)C(Cl)(Cl)Cl)c1ccccc1 (stereo not drawn)	inactive: 19.4%
CC(C)CC(=O)NC(Sc1ccc(Cl)cc1)C(Cl)(Cl)Cl (stereo not drawn)	inactive: -10.3%
Nc1cc(N)c2nonc2c1[N+](=O)[O-]	inactive: -8.5%
O=[N+]([O-])C1C(O)C(O)C([N+](=O)[O-])C(O)C1O (stereo not drawn)	inactive: 0%
CN(C)P(=O)(N(C)C)n1c(Nc2ccccc2)nnc1-c1ccccc1	inactive: -6.13%

Compound	activity change
O=C(O)c1ccccc1[As](=O)(O)O	inactive: -15%
CC(=O)Nc1ccc([As](=O)(O)O)cc1	inactive: 0%
CCCC1OP(N)(=O)OCC1CC (stereo not drawn)	inactive: 16.8%
CCOP(=O)(Nc1ccccc1)OCC	inactive: 19.6%
Cc1cc(SC(NC(=O)c2ccc(F)cc2)C(Cl)(Cl)Cl)ncn1 (stereo not drawn)	inactive: 20.9%
Cc1ccc(NP(=O)(Oc2ccccc2F)Oc2ccccc2F)nc1	inactive: 0.0402%
Nc1cccc2ccc([As](=O)(O)O)cc12	inactive: 12.8%
CCN(N=Nc1nonc1N)c1nonc1N	inactive: 3.95%
O=P1(N(CCCl)CCCl)OCCCS1 (stereo not drawn)	inactive: 15.3%
O=C(Nc1cc([As](=O)(O)O)ccc1O)c1ccccc1	inactive: 12.3%
O=[N+]([O-])c1ncn(CCn2ncnc2[N+](=O)[O-])n1	inactive: 23.1%
CC(C)(C)C(=O)NC(Sc1ccncn1)C(Cl)(Cl)Cl (stereo not drawn)	inactive: 10.9%
O=C(O)CNc1ccc([As](=O)(O)O)cc1	inactive: 6.16%
O=[N+]([O-])c1cccc(NC2=NCC(CBr)S2)c1 (stereo not drawn)	inactive: 0%
COC(=O)C1(C)COP(=O)(Nc2ccccc2)OC1 (stereo not drawn)	inactive: 13.9%
COc1ccc(C2=NCC(CBr)S2)cc1 (stereo not drawn)	inactive: 9.65%
Cc1ccc(NP(=O)(Oc2ccccc2)Oc2ccccc2)nc1	inactive: 6.16%
O=[N+]([O-])c1cc([N+](=O)[O-])c(CCNc2ccccc2)c([N+](=O)[O-])c1	inactive: -15.3%
CCc1nc2c(n1)c1c(non1O)c1c2no[n+]1[O-]	inactive: -19.2%
CC(=O)N1C2C3N(C(C)=O)C1C1N(C(C)=O)C(C(N1C(C)=O)N3C(C)=O)N2C(C)=O	inactive: 8.2%
O=[N+]([O-])c1cccc2n[nH]nc12	inactive: 26.1%
CCN(/C(=N/P(=O)(N1CCOCC1)N1CCOCC1)N1CCOCC1)c1ccc(OC)cc1	inactive: 29.7%
Nc1ccc([As](=O)(O)c2ccc(N)cc2)cc1	inactive: 5.15%
C[N+]1=C2C=CC=CC=C2SC12C([N+](=O)[O-])=CC([N+](=O)[O-])=C[C-]2[N+](=O)[O-] (stereo not drawn)	active: -102%
c1cc(-c2nn[nH]n2)ccc1-c1nn[nH]n1	inactive: 2.46%
CC1CCN(C(=O)Oc2c(Cl)cc(Cl)c3cccnc23)CC1	inactive: -16.6%

Compound	activity change
CC(C)=N/N=C(\N)N[N+](=O)[O-]	inactive: 21%
CC(C)c1nc(Nc2ccccc2)n(P(=O)(N(C)C)N(C)C)n1	inactive: 3.33%
CN(C)C(=O)OCCc1n(C)cc[n+]1C	inactive: 7.64%
COP1(=S)c2c(C)nn(CCC#N)c2N=C(c2ccc(F)cc2)N1C (stereo not drawn)	inactive: -5.85%
COC(=O)C1(C)COP(=O)(N2CCCC2)OC1 (stereo not drawn)	inactive: 23.2%
O=C(O)C(=O)c1ccc(N(CCCl)CCCl)cc1	inactive: -21.1%
O=C(COc1ccccc1)OC1CN2CCC1CC2 (stereo not drawn)	inactive: 21.4%
O=C(Nc1ccncc1[N+](=O)[O-])c1ccc([N+](=O)[O-])cc1[N+](=O)[O-]	inactive: 36.8%
O=C(OC1CN2CCC1CC2)c1cccc([N+](=O)[O-])c1 (stereo not drawn)	inactive: 25%
CSc1ccc(Nc2c([N+](=O)[O-])cc([N+](=O)[O-])cc2[N+](=O)[O-])cc1	active: -63.8%
CCOC(=O)c1ccc(NC(=O)C(C)(CCl)SC)cc1 (stereo not drawn)	inactive: 6.48%
CCC(C)N(CC(C)C)C(=S)SC(NC(C)=O)C(Cl)(Cl)Cl (stereo not drawn)	inactive: 47.8%
O=C(O)C(O)c1ccc(N(CCCl)CCCl)cc1 (stereo not drawn)	inactive: -3.5%
CCOC(=O)Nc1ccc([As](=O)(O)O)c(O)c1	inactive: -7.16%
CC1CCNP(=O)(N(CCCl)CCCl)O1 (stereo not drawn)	inactive: 6.43%
COP(=O)(OC)N1CC1c1ccccc1 (stereo not drawn)	inactive: 8.65%
CCCCOc1ccc(C(=O)NCC2(N3CCCCC3)CCCCC2)cc1OC	inactive: 0.954%
Cc1cc(SC(NC(=O)c2ccccc2)C(Cl)(Cl)Cl)nc(C(C)C)n1 (stereo not drawn)	inactive: -9.3%
CCOC(=O)Nc1cccc([As](=O)(O)O)c1	inactive: 19.7%
O=P(Nc1ccccn1)(c1cccc2ccccc12)c1cccc2ccccc12	inactive: -1.39%
O=[N+]([O-])c1ccc(Nc2ccc(Oc3ccc([N+](=O)[O-])cc3[N+](=O)[O-])cc2)c([N+](=O)[O-])c1	inactive: -16.7%
O=[As](O)(c1ccc(O)cc1)c1ccccc1O	inactive: -2.15%
C[As](=O)(O)c1cccc(C(=O)O)c1	inactive: 0%
COc1cc(C(=O)NCC2(N3CCOCC3)CCCCC2)ccc1OCC(C)C	inactive: -3.03%
O=[N+]([O-])c1ccc(-c2cc([N+](=O)[O-])c(O)c([N+](=O)[O-])c2)cc1	inactive: -9.65%
